Source: ChEMBL document CHEMBL1127586, “Central cholinergic agents. 6. Synthesis and evaluation of 3-[1-(phenylmethyl)-4-piperidinyl]-1-(2,3,4,5-tetrahydro-1H-1-benzazepi n-8-yl)-1-propanones and their analogs as central selective acetylcholinesterase inhibitors” (J Med Chem, 1994)

These compounds were tested against T1, Acetylcholinesterase (Rattus norvegicus, UniProt P37136).
T1 sequence (P37136 whole entry): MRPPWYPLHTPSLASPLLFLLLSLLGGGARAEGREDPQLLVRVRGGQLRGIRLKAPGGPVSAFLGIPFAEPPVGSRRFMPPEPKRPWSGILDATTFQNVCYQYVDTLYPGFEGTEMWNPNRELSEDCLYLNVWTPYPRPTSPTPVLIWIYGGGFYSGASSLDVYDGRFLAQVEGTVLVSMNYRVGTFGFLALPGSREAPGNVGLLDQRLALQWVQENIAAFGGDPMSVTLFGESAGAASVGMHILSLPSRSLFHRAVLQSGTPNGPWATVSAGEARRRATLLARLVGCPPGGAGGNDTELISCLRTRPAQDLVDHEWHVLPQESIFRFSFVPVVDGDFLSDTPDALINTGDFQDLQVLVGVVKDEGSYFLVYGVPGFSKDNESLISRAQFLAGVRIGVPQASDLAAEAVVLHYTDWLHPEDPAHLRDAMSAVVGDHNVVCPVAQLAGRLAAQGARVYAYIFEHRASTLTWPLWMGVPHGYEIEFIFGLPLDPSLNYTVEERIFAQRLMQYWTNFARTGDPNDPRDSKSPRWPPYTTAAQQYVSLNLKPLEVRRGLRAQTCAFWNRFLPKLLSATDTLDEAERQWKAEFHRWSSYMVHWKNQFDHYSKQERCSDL

Row | Compound | IC50
1 | O=C(CCC1CCN(Cc2ccccc2F)CC1)c1ccc2c(c1)NCCCC2 | 0.331 µM
2 | COc1ccc(CN2CCC(CCC(=O)c3ccc4c(c3)NCCCC4)CC2)cc1 | 55.2 µM
3 | COc1ccc(CN2CCC(CCC(=O)c3ccc4c(c3)CCN4)CC2)cc1 | 13.3 µM
